# Results from patent publication US8552053B2, “7-substituted indirubin-3′oximes and their applications” (Centre National de la Recherche Scientifique, priority 2005, dated 2013).
# Chains of the proteins cited; added tags and fusions are not shown.
# UniProt P06493, whole entry, looked up: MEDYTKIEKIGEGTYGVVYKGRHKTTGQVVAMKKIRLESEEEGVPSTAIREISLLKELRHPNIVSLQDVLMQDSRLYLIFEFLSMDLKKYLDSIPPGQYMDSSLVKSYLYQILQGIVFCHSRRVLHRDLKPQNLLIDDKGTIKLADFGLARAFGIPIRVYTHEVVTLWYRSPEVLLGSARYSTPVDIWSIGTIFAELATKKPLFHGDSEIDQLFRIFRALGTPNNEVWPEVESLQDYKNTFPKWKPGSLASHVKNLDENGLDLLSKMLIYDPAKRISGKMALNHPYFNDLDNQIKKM
# Target: CDK1/cyclin B (UniProt P06493)
# Test: CDK1/cyclin B kinase assay
# Type: biochemical, starfish (Marthasterias glacialis)
# Settings: listed as 24
compound,measurement,value
O=C1Nc2c(Br)cccc2/C1=C1/Nc2ccccc2/C1=N\O,inhibitory activity on CDK1/cyclin B (in words),weak and gradually decreasing inhibitory activity
